One data set has as its target T1, Bcl-XL (Homo sapiens, UniProt Q07817, S2L).
T1 construct: with the C-terminus truncated; His6; made in house; host or cells: Escherichia coli BL21 (pLys)
Put plainly: Fluorescence anisotropy binding and competition binding assay. The method, then:
Fluorescence Anisotropy was monitored with a Polarion Instrument (Tecan, Austria): excitation wavelength = 485 nm, emission wavelength = 535 nm. […] Anisotropy values were studied at a fixed concentration of fluoresceinated Bak BH3 molecule (2E-8 M), a fixed concentration of peptide inhibitors (2E-7 M) and increasing concentrations of Bel-XL (from 2E-8 M to 1E-6 M). Experiments were performed in 96-wells black non-binding plates (Corning), the experimental volume was always 200 µl / well. Reagents were mixed at room temperature and maintained at a constant temperature (30°C) during the measurements. Anisotropy measurements were performed at different times of incubation to assess the stability of the reactions. […]
For simple binding experiments we evaluated the Kd using a nonlinear regression analysis [NLIN SAS] to fit the Lundblad equation [38]. […]
We calculated the expected Anisotropy value solving a third degree equation obtained extending the simple binding equation to a competitive binding inhibition assay. […]
Point estimates of each equilibrium constant were evaluated using meta-analytical tools weighting each experimental result for its estimated variance. […]
Fluorescence Anisotropy (FA) is a quantitative technique to analyze the interaction of a smaller fluorescent molecule with a larger non fluorescent molecule. […]
A general note: In fluorescence polarisation assays a small probe gives low polarisation when free and higher when bound to something large.

Protein sequences, listed by entry. Tags and fused reporters are not part of them. Residues count along the entry.
UniProt Q07817, 1-212 S2L: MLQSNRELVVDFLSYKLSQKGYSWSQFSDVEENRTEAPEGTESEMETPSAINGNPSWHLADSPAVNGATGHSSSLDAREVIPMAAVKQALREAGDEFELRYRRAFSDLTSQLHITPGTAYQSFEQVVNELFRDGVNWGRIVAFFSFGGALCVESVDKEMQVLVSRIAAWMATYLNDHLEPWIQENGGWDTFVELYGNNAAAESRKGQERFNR

Data set [1] can be described thus: Circular dichroism, relative content of secondary structure elements. The format is physicochemical. Also noted: key to α-Helix / β-Strands / β-Turns / Random: relative content as fraction, from CDSSTR deconvolution. The note with it: CDSSTR deconvolution. As to the method:
Circular dichroism (CD) spectra in the far-UV region (190-260 nm) were collected on a Jasco J-715 spectropolarimeter using a 0.1 cm path-length cuvette. Temperature was kept at 25°C by a Peltier device. Peptide concentration was determined from the absorption of the aromatic residues at 280 nm.
Peptides solutions: Bim-BH3Y and Bim-BH3YA2Aib were suspended in water and potassium hydroxide was added up to complete solubilization. 072RB was dissolved in water. Concentration of stock solutions was about 0.1 mg/ml. For circular dichroism measurements, stock solutions were diluted in 10 mM potassium phosphate buffer, pH 7.
The relative content of secondary structure elements was calculated with the deconvolution program CDSSTR [31] (Table 2). […] 072RB has the highest helical content in the set examined here (0.30 α-helix percent).

A short description of data set [2]: Peptides stability in medium with 10% FBS or in 100% FBS (HPLC-MS). The conditions noted are these: RPMI 1640 medium with 10% fetal bovine serum (FBS), medium (RPMI 1640) with 10% FBS, 37°C, calculated by linear regression. The format is in vitro ADME. The method, then:
Compounds were added to the medium solution of serum 10% or 100% FBS at the final concentration of 32 µM. Several extraction mixtures were attempted: MeOH; MeOH with 0,1% trifluoroacetic acid (TFA); (H2O: MeOH) 1:1, 1:4, 4;1. A perchloric acid (PCA) protein precipitation protocol was also tried. […] In both cases ice-cold methanol was added to the peptide solution. The mixture was centrifuged and the resulting supernatant was then added with ice-cold methanol (alone or containing 0,1% TFA) at a 1:1 final ratio and this procedure was repeated twice. Before extraction peptides were incubated in 10% FBS or 100% FBS at 37°C and, at different incubation times (0', 6, 24 and 48 hours), a sample of 50 µl was collected to be analyzed by HPLC-MS.

The mark [3] stands for this setting: relative content, 10 mM potassium phosphate buffer, pH 7, 25°C.

Regarding `CC[C@H](C)[C@H](NC(=O)[C@H](CCCNC(=N)N)NC(=O)[C@H](CCCNC(=N)N)NC(=O)[C@H](CC(C)C)NC(=O)[C@H](CCC(=O)O)NC(=O)[C@H](CCC(N)=O)NC(=O)[C@H](C)NC(=O)[C@@H](NC(=O)[C@H](Cc1ccc(O)cc1)NC(=O)[C@@H](NC(=O)[C@H](CCC(=O)O)NC(=O)[C@@H]1CCCN1C(=O)[C@H](CCCNC(=N)N)NC(=O)[C@H](CCSC)NC(=O)[C@@H](N)CC(=O)O)[C@@H](C)CC)[C@@H](C)CC)C(=O)NCC(=O)N[C@@H](CC(=O)O)C(=O)N[C@@H](CCC(=O)O)C(=O)N[C@@H](Cc1ccccc1)C(=O)N[C@@H](CC(N)=O)C(=O)N[C@@H](C)C(=O)N[C@@H](Cc1ccc(O)cc1)C(N)=O` [Bim-BH3 Y], the Kd (usually the concentration at which binding is half-saturated) at Bcl-XL (competition binding assay: BakF-BH3 2E-8 M, competitor peptide 2E-7 M, Bcl-XL 2E-8 M to 1E-6 M, 45 min, 30°C, read-out: Weighted mean Kd) turned out to be 29.2 nM. Besides, the “experimental ΔG° difference” value on Bcl-XL (wild type versus W89Y mutant complex) turned out to be 0.8 kcal/mol. In addition, in data set [1], the “relative content of helices” value is reported as 0.03 α-helix percent. In data set [1] (setting [3]), this molecule gave a Random of 0.59, a α-Helix of 0.03, a β-Strands of 0.22 and a β-Turns of 0.14. In addition, the half-life (as a rule, how long it takes for the measured level to halve) at 32 µM in data set [2] is 49.5 h.

The values above are taken from patent EP1985629A1, “Pro-apoptotic molecules and therapeutic uses thereof” (UNIVERSITA DEGLI STUDI DI GENOVA, priority 2007, dated 2008).
